Data reported in ChEMBL document CHEMBL5385844, “Discovery of novel imidazole chemotypes as isoform-selective JNK3 inhibitors for the treatment of Alzheimer's disease” (Eur J Med Chem, 2023).

By UniProt entry, the sequences of proteins in these tests, tags left out. Where a name states a change or a piece, a line headed by the entry shows the natural chain unless it says otherwise.
UniProt P45984: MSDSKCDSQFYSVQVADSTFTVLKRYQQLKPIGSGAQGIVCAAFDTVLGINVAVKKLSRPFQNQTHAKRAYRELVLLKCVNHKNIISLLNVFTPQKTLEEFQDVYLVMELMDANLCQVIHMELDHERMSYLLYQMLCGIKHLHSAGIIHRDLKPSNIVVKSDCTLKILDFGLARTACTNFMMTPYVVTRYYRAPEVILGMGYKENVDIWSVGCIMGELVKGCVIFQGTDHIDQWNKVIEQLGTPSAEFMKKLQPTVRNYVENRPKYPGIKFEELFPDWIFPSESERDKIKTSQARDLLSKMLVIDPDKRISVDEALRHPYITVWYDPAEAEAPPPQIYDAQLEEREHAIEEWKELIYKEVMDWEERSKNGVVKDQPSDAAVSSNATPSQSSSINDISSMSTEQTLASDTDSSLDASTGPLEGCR
UniProt P53779: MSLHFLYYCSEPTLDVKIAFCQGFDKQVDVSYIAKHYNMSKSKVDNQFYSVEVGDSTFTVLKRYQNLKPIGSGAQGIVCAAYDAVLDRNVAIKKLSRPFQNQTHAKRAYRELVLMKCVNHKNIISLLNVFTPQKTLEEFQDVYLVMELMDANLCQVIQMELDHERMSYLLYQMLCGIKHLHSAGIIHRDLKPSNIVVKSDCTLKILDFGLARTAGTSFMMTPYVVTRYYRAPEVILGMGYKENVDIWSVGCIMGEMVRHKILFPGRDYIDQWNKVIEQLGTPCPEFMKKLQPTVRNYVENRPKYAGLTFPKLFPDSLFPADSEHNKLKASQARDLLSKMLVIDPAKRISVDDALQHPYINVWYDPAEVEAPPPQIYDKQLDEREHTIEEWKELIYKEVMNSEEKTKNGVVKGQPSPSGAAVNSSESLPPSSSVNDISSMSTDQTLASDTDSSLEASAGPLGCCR

Columns and labels:
[1] = target: Mitogen-activated protein kinase 9 (Homo sapiens, UniProt P45984); experiment: Inhibition of JNK2 (unknown origin) assessed as incorporation of 33P-ATP
[2] = target: Mitogen-activated protein kinase 10 (Homo sapiens, UniProt P53779); experiment: Inhibition of human JNK3 incubated for 40 mins in presence of ATP and [gamma33P-ATP] by scintillation counting method

`NC(=O)N1Cc2nc(-c3ccc(Cl)c(Cl)c3)n(-c3ccnc(N[C@@H]4CCN(C(=O)C5CC5)C4)n3)c2C1` showed an IC50 [1] of 230 nM and an IC50 [2] of 3 nM.
